# OPERA 2.9 data: properties

Source: data files of OPERA 2.9 (Mansouri et al.), github.com/kmansouri/OPERA.

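These are experimental values that the OPERA curators gathered from public databases to train and test their QSAR models. The files give a single number for a compound and property, which may rest on several reports. Conditions of the individual experiments are not part of the data. The measured form (salt, isomer or mixture) is not always the one drawn. Unmarked limits or estimates from the upstream databases cannot be ruled out.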

Melting points are in °C.
The boiling point refers to atmospheric pressure (760 mmHg), by the definition of the set.
logP is the log10 of the octanol-water partition coefficient; higher is more lipophilic.
Water solubility is log10 of mol/L, nominally at 25 °C; higher is more soluble.
Vapor pressures (log10 mmHg) refer to near room temperature, 15 to 30 °C; higher is more volatile.
The Henry's law constant is on a log10 scale in atm·m3/mol (set defined at 25 °C); higher favours air over water.
The unbound fraction in human plasma runs from 0 (all bound) to 1 (all free).
Clint is human hepatic intrinsic clearance in µL/min per million cells; 0 means that no clearance was seen.
"–" marks a cell with nothing listed here.

For CCCCCCCCCCC(CCCCCCCC)COC(=O)[C@@H]1CCC(=O)N1 (stereo partly drawn) [2-Octyldodecyl 5-oxo-L-prolinate] the data give logP 6.97 and water solubility -8.311 (log10 mol/L) and vapor pressure -3.803 (log10 mmHg).
For CCOP(=O)(CO)OCC [Diethyl (hydroxymethyl)phosphonate] the data give mp -34 °C and vapor pressure -0.066 (log10 mmHg).
For FC(F)=C(F)OC(F)(F)C(F)(OC(F)(F)C(F)(F)C(F)(F)F)C(F)(F)F (stereo not drawn) [Perfluoro(2-propoxypropyl vinyl ether)] the data give water solubility -8.191 (log10 mol/L) and vapor pressure 1.6 (log10 mmHg).
For O=c1sn(-c2cccc3ccccc23)c(=O)n1Cc1ccccc1 [Tideglusib] the data give mp 149 °C and bp 511.3 °C.
For Nc1cccc2c(N)cccc12 [1,5-Naphthalenediamine] the data give vapor pressure -7.766 (log10 mmHg) and fraction unbound 0.6333.
For N=C1NC(=N)c2ccccc21 [1H-Isoindole-1,3(2H)-diimine] the data give logP 0.62 and vapor pressure -4.647 (log10 mmHg).
For COC(=O)C(=Cc1ccc(OC)cc1)C(=O)OC [Dimethyl (p-methoxybenzylidene)malonate] the data give logP 2.4 and water solubility -3.439 (log10 mol/L) and vapor pressure -5.577 (log10 mmHg).
For CC(Oc1ccc(Cl)cc1Cl)C(O)=NC(C)(C#N)C(C)C (stereo not drawn) [Fenoxanil] the data give water solubility -1.03 (log10 mol/L) and vapor pressure -9.801 (log10 mmHg).
For CCCC(C)C1OCC(C)(CCC)CO1 (stereo not drawn) [1,3-Dioxane, 5-methyl-2-(1-methylbutyl)-5-propyl-] the data give logP 5.745 and water solubility -4.316 (log10 mol/L) and vapor pressure -1.507 (log10 mmHg).
For Cc1ccc(S(=O)(=O)Nc2cc(S(=O)(=O)[O-])cc3cc(S(=O)(=O)[O-])c(/N=N/c4ccc(Oc5ccccc5C)cc4Oc4ccccc4C)c(O)c23)cc1.[Na+].[Na+] the data give logP -0.994 and water solubility -2.567 (log10 mol/L).
For CCC(N)(CO)CO [2-Amino-2-ethyl-1,3-propanediol] the data give logP -0.123 and vapor pressure -2.663 (log10 mmHg).
For CCCCCCCCCc1cc(C(C)(C)C)c(O)c(C(C)(C)C)c1 [Phenol, 2,6-bis(1,1-dimethylethyl)-4-nonyl-] the data give mp -47.4 °C and water solubility -5.946 (log10 mol/L) and vapor pressure -4.085 (log10 mmHg).
For [Na+].[Na+].[O-]c1c(-c2[nH]c3ccccc3c2[O-])[nH]c2ccccc12 [[2,2'-Bi-1H-indole]-3,3'-diol, disodium salt] the data give mp 125 °C and logP 1.4.
For CC(C)(O)CCC(C)(C)O [2,5-Dimethylhexane-2,5-diol] the data give logP 0.21 and vapor pressure -2.745 (log10 mmHg).
For Cc1cc(Cc2cc(C)cc(C3(C)CCCCC3)c2O)c(O)c(C2(C)CCCCC2)c1 [2,2'-Methanediylbis[4-methyl-6-(1-methylcyclohexyl)phenol]] the data give water solubility -8.147 (log10 mol/L) and vapor pressure -8.187 (log10 mmHg).
For C[N+](C)([O-])CCCNS(=O)(=O)CCC(F)(F)C(F)(F)C(F)(F)C(F)(F)C(F)(F)C(F)(F)F the data give mp 148 °C and logP 1.35 and vapor pressure -5.862 (log10 mmHg).
For O=C(O)COC(=O)c1cc(Oc2ccc(C(F)(F)F)cc2Cl)ccc1[N+](=O)[O-] the data give water solubility -5.83 (log10 mol/L) and vapor pressure -9.4 (log10 mmHg).
For CCCCCCCCCCCCn1ccnc1 [1-Dodecyl-1H-imidazole] the data give mp 7 °C and vapor pressure -4.18 (log10 mmHg).
For C=CC(=O)Oc1c(Cc2cc(C)cc(C(C)(C)C)c2O)cc(C)cc1C(C)(C)C the data give mp 133.2 °C and logP 7.25 and water solubility -9.506 (log10 mol/L).
For O=[N+]([O-])c1c2ccccc2c2ccc3cccc4ccc1c2c43 [Benzo[a]pyrene, 6-nitro-] the data give mp 250.8 °C and logP 5.44.
For CC(=O)O[C@]1(C)CC[C@@]23C[C@@H]1C(C)(C)[C@@H]2CC[C@H]3C [Cedryl acetate] the data give water solubility -5.427 (log10 mol/L) and vapor pressure -3.305 (log10 mmHg).
For CC1CN(C2CCCCCCCCCCC2)CC(C)O1 (stereo not drawn) [Dodemorph] the data give water solubility -3.45 (log10 mol/L) and log Henry constant -5.119 (log10 atm·m3/mol).
For COc1cc2c(cc1OC)CC(=O)NC=C2 [7,8-dimethoxy-1,3-dihydro-2H-3-benzazepin-2-one] the data give mp 246 °C and logP 1.23 and water solubility -3.728 (log10 mol/L).
For COC(=O)CCCC(=O)OC [Dimethyl glutarate] the data give fraction unbound 0.6989 and Clint 46.3 µL/min/10^6 cells.
For c1ccc2[nH]c(-c3cscn3)nc2c1 [Thiabendazole] the data give fraction unbound 0.1384 and Clint 0 µL/min/10^6 cells.
For CC(C)OP(=O)(CP(=O)(OC(C)C)OC(C)C)OC(C)C [Tetraisopropyl methylenediphosphonate] the data give logP 1.3 and vapor pressure -3.757 (log10 mmHg).
For COc1cc(S(=O)(=O)[O-])c(C)cc1NC(=O)CC(C)=O.[NH4+] the data give mp 160 °C and logP -2.7.
For C=CC(=O)OCC(CCC)CCCCC (stereo not drawn) the data give logP 6.3 and water solubility -5.827 (log10 mol/L) and vapor pressure 0.446 (log10 mmHg).
For COc1ccc2c(c1)C(CC#N)=CCC2 [(7-Methoxy-3,4-dihydronaphthalen-1-yl)acetonitrile] the data give mp 44.9 °C and logP 2.42 and water solubility -3.624 (log10 mol/L) and vapor pressure -5.319 (log10 mmHg).

5 of these entries, quoted again:

compound	name	mp (°C)	bp (°C)	logP	water solubility (log10 mol/L)	vapor pressure (log10 mmHg)	log Henry constant (log10 atm·m3/mol)	fraction unbound	Clint (µL/min/10^6 cells)
O=c1sn(-c2cccc3ccccc23)c(=O)n1Cc1ccccc1	Tideglusib	149	511.3	–	–	–	–	–	–
N=C1NC(=N)c2ccccc21	1H-Isoindole-1,3(2H)-diimine	–	–	0.62	–	-4.647	–	–	–
C=CC(=O)Oc1c(Cc2cc(C)cc(C(C)(C)C)c2O)cc(C)cc1C(C)(C)C	–	133.2	–	7.25	-9.506	–	–	–	–
COc1cc(S(=O)(=O)[O-])c(C)cc1NC(=O)CC(C)=O.[NH4+]	–	160	–	-2.7	–	–	–	–	–
CCC(N)(CO)CO	2-Amino-2-ethyl-1,3-propanediol	–	–	-0.123	–	-2.663	–	–	–